Assay results as given in patent US6706683B1, “Method for controlling the release of granules” (Asahi Kasei Pharma Corporation, priority 1998, dated 2004).

System: neutrophils
Test: Screening of samples in calgranulin-stimulated elastase secretion from permeabilized neutrophils (Example 3)
Assay type: cell-based, human
Conditions: sample 30 μM, control without sample = 100%, calcium chloride 1 μM plus calgranulin (type and concentration not given)

SMILES: O=C(O)c1cc(N=Nc2ccc(S(=O)(=O)Nc3ccccn3)cc2)ccc1O [Compound 4, 2-hydroxy-5-((-4-((-2-pyridinylamino)sulfonyl)phenyl)azo)benzoic acid, reference compound]
- Amount of secretion (%): 75%
